Literature values as cited in patent publication US6825040B2, “Method of using a vapor acid test kit” (Mainstream Engineering Corporation, priority 1995, dated 2004).

Assays:
[1] = pH range of the indicator colour change
[2] = negative log of the dissociation equilibrium constant of the indicator

In the case of α-Naphtholbenzein, the “pH Range” value [1] is listed as 9.0 to 11.0.
For “5-(p-Nitrophenylazo)-salicylic acid. Na salt”, the “pH Range” value [1] is listed as 10.0 to 12.0 and the pKa [2] is listed as 11.2.
In the case of 2,8-Dinitrophenol, the “pH Range” value [1] is listed as 2.4 to 4.0 and the pKa [2] is listed as 3.69.
In the case of “Diphenylamino-p-benzene sodium sulfonate”, the pKa [2] is listed as 2.
